Source: paper PMC5512577 (Nature Communications, 2016)

Target: T1, phosphodiesterase 6 delta subunit (PDE6δ), N-terminal histidine-tagged (UniProt O43924)
T1 construct: PDE6δ, the delta subunit of phosphodiesterase 6; the PDE6δ of PDB 3T5G was the search model for the structure solved here (5F2U); also called PrBP/PDE6δ; source: E. coli BL21-CodonPlus(DE3)-RIL, purified (Ni-NTA, gel filtration)
Assay: fluorescence polarisation; stopped flow; kon: 0.2 μM mantGppNHp-loaded Arl protein with increasing PDE6δ; koff: 2 μM PDE6δ with 0.2 μM mantGppNHp-loaded Arl protein mixed with 200-fold excess of unlabelled Arl protein; Kd=koff/kon; 20 °C
Conditions: both partners purified

fold kon against Arl2^fl: ~2 fold
fold residence time against Arl3^ΔN: 26 fold
B1: full-length Arl3, C-terminal histidine-tagged, bound to GppNHp or mantGppNHp (natural protein, UniProt Q9WUL7 1-182, looked up)
chain: MGLLSILRKLKSAPDQEVRILLLGLDNAGKTTLLKQLASEDISHITPTQGFNIKSVQSQGFKLNVWDIGGQRKIRPYWRSYFENTDILIYVIDSADRKRFEETGQELTELLEEEKLSCVPVLIFANKQDLLTAAPASEIAEGLNLHTIRDRVWQIQSCSALTGEGVQDGMNWVCKNVNAKKK
notes: Loaded with the non-hydrolysable GTP analogue GppNHp (release assays) or mantGppNHp (kinetics with PDE6δ); Species surmised as mouse from earlier work of the same laboratory; the human protein is P36405; also called Arl3^fl; Arl3·GppNHp; source: E. coli BL21-CodonPlus(DE3)-RIL, purified (Ni-NTA, gel filtration)
